Measurements from US11268958B2, “Bacteria-specific labeled substrtates as imaging biomarkers to diagnose, locate, and monitor infections” (THE JOHNS HOPKINS UNIVERSITY, priority 2012, dated 2022).

System: E. coli
Conditions: mouse, in vivo

Structure (SMILES): OC[C@@H](O)[C@@H](O)[C@H](O)[C@@H]([18F])CO [[^18F]FDS, 2-[^18F]-fluorodeoxysorbitol]
- sites of PET signal concentration: infected right thigh, gall bladder, intestine, and bladder
